Experimental data as given in ChEMBL document CHEMBL5370537, “Aporphines: A privileged scaffold in CNS drug discovery” (Eur J Med Chem, 2023).

Chains of the proteins cited; added tags and fusions are not shown. Lines headed by an entry give the natural chain unless they say otherwise; changes in a name come on top.
UniProt O42275: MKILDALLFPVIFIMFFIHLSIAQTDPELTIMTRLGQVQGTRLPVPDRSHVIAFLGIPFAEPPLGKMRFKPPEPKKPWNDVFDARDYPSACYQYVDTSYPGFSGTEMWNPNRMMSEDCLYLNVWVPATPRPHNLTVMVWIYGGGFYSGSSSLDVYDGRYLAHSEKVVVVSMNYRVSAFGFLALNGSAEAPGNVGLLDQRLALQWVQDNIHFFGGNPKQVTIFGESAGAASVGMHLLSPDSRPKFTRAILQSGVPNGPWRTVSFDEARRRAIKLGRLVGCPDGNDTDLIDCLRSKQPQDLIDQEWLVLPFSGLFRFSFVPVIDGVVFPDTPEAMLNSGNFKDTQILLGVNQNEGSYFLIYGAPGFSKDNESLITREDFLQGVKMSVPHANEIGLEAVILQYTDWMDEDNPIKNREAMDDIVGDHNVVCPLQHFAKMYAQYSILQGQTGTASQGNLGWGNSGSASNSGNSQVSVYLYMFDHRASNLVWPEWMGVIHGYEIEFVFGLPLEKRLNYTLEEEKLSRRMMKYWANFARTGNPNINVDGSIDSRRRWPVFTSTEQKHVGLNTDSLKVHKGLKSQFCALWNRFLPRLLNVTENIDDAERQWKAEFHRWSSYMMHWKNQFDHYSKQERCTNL

Columns and labels:
Conditions in all cases: time 15.0 min
[1] = biological target: Acetylcholinesterase (Electrophorus electricus) (UniProt O42275); assay: Potency index, ratio of (R)-Stephanine IC50 to test compound IC50 for inhibition of Electrophorus electricus AChE using ATCI as substrate pre-incubated for 10 mins followed by substrate addition measured after 5 mins by microplate reader analysis
[2] = biological target: Acetylcholinesterase (Electrophorus electricus) (UniProt O42275); assay: Potency index, ratio of (R)-Roemerine IC50 to test compound IC50 for inhibition of Electrophorus electricus AChE using ATCI as substrate pre-incubated for 10 mins followed by substrate addition measured after 5 mins by microplate reader analysis
[3] = biological target: Acetylcholinesterase (Electrophorus electricus) (UniProt O42275); assay: Potency index, ratio of (S)-Dicentrine IC50 to test compound IC50 for inhibition of Electrophorus electricus AChE using ATCI as substrate pre-incubated for 10 mins followed by substrate addition measured after 5 mins by microplate reader analysis

Measured: Ratio IC50

COc1cccc2c1cc1c3c(cc4c(c32)OCO4)CCN1C
4: all assays above

CN1CCc2cc3c(c4c2c1cc1ccccc14)OCO3 [DEHYDROROEMERINE]
4: all assays above
